Antibody variant affinities, Ab-14 heavy chain, assay B

Source: Li et al. 2023 (doi:10.1038/s41467-023-39022-2), MIT Lincoln Laboratory and A-Alpha Bio; data file from the FLAb repository.

All variants were tested on one target, the spike HR2 peptide PDVDLGDISGINAS (SARS-CoV-2).

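The starting antibody came from a phage panning campaign against this peptide. These sequences belong to a second round, designed from the earlier measurements on random variants of the parent. Several design methods are mixed in this list. Affinity was read by AlphaSeq, a pooled yeast mating assay with surface-displayed partners. Binding brings cells together so that they mate, and sequencing counts the barcode pairs among the diploids. Read counts were normalised to the haploid input and turned into Kd by a linear fit to BCL2-family pairs of known affinity, for each replicate. Each pool was mated in six replicate cultures.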

Parent: Ab-14, a human scFv built as VH, a (GGGGS)3 linker, VL. Only the CDRs of the heavy chain vary.
VH: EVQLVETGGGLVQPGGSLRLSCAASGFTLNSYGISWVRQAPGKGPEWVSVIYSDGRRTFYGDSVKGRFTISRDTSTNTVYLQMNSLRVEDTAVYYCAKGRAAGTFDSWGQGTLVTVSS
VL: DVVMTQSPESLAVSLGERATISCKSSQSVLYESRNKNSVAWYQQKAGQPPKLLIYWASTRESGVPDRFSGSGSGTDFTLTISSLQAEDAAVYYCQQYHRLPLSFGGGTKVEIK

The parent's heavy chain CDRs are GFTLNSYGIS, VIYSDGRRTFYGDSVK, GRAAGTFDS; each variant's own CDRs replace them letter for letter.
Scale: log10 of Kd in nM, estimated from mating counts; low values are strong binders.
Averages over replicates are reported, and they cover detected replicates only.
"nd" marks a missing value. The strain was present, yet no cells mated with the target were sequenced in any replicate, which points to weak or no binding.

CDR-H1	CDR-H2	CDR-H3	log10 Kd (nM), mean	replicates with signal
GFELNEYGIS	VIYSDGRRTFYMDSVK	GRNAGTFDS	0.57	6 of 6
GFTLNEYGIS	VIYSDGHRTFYSDSVK	GRTAGTFDS	0.61	5 of 6
GTTLNSYGIS	VIYSDGRRTFYMDSVK	GRAAGTFDN	nd	0 of 6
GFSLNSYGIS	VIYSDGRRTFYADSVK	GRTAGMFDS	2.18	5 of 6
GFTLNSYGIS	VIYSDGRRTQYGNSVK	GRAAGTFDS	nd	0 of 6
GFSLNSYGIS	VIYSDGRRTFYSDKVK	GRTAGTFDS	0.26	6 of 6
GFDLNEYGIS	VIYADGKRTAYADDVK	GNTAGTFDL	-0.85	6 of 6
GMSLDEYGIS	VIYADGVRCEYANTVK	GELAGFFML	nd	0 of 6
GFDLNEYGIS	VIYADGRRTFYSDSVK	GEAGGTFDT	0.24	6 of 6
GFDLNSYGIS	VIYSDGRRTFYVDSVK	GRCAGTFDS	1.98	1 of 6
GFQLNSYGIS	VIYSDGRRTFYQDSVK	GRTAGTFDV	0.85	6 of 6
GFTLDSYGIS	VIYSDGRRTFYGDSVK	GEAAGTFDS	0.39	6 of 6
GNGLQEYGIS	VIYADGLRSMYANSVK	GNLDGMVLV	nd	0 of 6
GFTLESYGIS	VIYSDGRRTFYQDSVK	GQAAGTFDS	-0.17	2 of 6
GPNLEEYGIS	VIYADGIRTAYKDSVK	GDVAGYFVF	2.67	1 of 6
GFDLDEYGIS	VIYADGKRTAYADDVK	GNTAGTFDV	-0.65	6 of 6
GFTLNEYGIS	VIYSDGRRTFYGDSVK	GRAAGTFEF	1.67	3 of 6
GFDLDEYGIS	VIYADGVRTAYADKVK	GENAGTFDV	-0.32	6 of 6
GFDLNEYGIS	VIYADGRRTAYSDSVK	GTAGGTFDI	0.36	5 of 6
GFTLNEYGIS	VIYSDGRRTFYGDNVK	GRAAGTFMT	nd	0 of 6
GSTLNEYGIS	VIYSDGRRTFYTDSVK	GRHAGTFDS	nd	0 of 6
GFDLNEYGIS	VIYADGRRTFYADSVK	GEAAGTFNV	-0.58	6 of 6
GFTLNSYGIS	VIYSDGRRTFYGGSVK	GEAAGTSDS	nd	0 of 6
GFTLNSYGIS	VIYSDGMRTFYGDDVK	GRTAGTFDS	1.70	4 of 6
GFTINSYGIS	VIYFDGRRTFYTDSVK	GRWAGSFDS	nd	0 of 6
GKLIDEYGIS	VIYADGQRKAYQDNVK	GNVSSLGSV	nd	0 of 6
GFDLNEYGIS	VIYADGVRTAYADSVK	GNTAGTFDV	-0.45	6 of 6
GFDLNEYGIS	VIYADGRRTFYVDSVK	GEEAGTFDQ	-0.15	6 of 6
GFDLNEYGIS	VIYADGMRQAYADSVK	GNTAGTFDV	0.03	6 of 6
GFDLNSYGIS	VIYSDGRRTFYSDSVK	GQEAGTFDS	-0.56	6 of 6
GFTLNSYGIS	VIYSDGRRTAYGDSVA	GKAGGTFDS	1.07	5 of 6
GFEIEEYGIS	VIYADGVRTMYTDNVK	GNILGLALT	nd	0 of 6
GFKLNEYGIS	VIYSDGRRTFYGDSVK	GTAAGTFDS	0.01	5 of 6
GFNLNSYGIS	VIYSDGRRTFYGDWVK	GRQAGTFDS	nd	0 of 6
GFQLNSYGIS	VIYSDGRRTFYGDNVK	GRTAGTFDT	1.00	6 of 6
GFTLKSYGIS	VIYADGRRTFYGDSVK	GRAAGTFKS	1.24	1 of 6
GFTLNSYGIS	VIYSDGRRTFYTDSVK	GTTAGTFDW	1.16	4 of 6
GFDLNEYGIS	VIYADGRRTAYADSVK	GEQAGTFDV	-0.24	6 of 6
GFTLDSYGIS	VIYSDGRRTFYSDSVK	GRAAGTFDS	0.55	6 of 6
GFDLNEYGIS	VIYADGLRTAYSDSVK	GNTAGTFDV	-0.25	6 of 6
GFNLNSYGIS	VIYSDGRRTFYADSVK	GRQAGTFDT	1.66	6 of 6
GFSLNDYGIS	VIYSDGRRTFYGDSVK	GRAAGTFMS	0.51	6 of 6
GFTLNSYGGS	VIYSDGRRTFYGDSVK	GRAAGNFDS	nd	0 of 6
GFTLNSYGIS	VIYSDGRRTFYSDSVR	GEAPGTFDS	1.15	6 of 6
GFDLNEYGIS	VIYADGRRTFYADSVK	GEQAGTFDV	-0.46	6 of 6
GESLEEYGIS	VIYADGMRNAYVSKVK	GTVSGDFTI	nd	0 of 6
GFTLLSYGIS	VIYSDGRRTEYGDSVK	GREAGSFDS	nd	0 of 6
GFDLNEYGIS	VIYADGVRTAYADNVK	GEVAGTFDQ	-0.38	6 of 6
GFTLENYGIS	VIYSDGRRTFYGDSVK	GRAAGTFTS	1.81	4 of 6
GFTLNSYGIS	VIYSDGRRTFYSDSVK	GKAGGTFDS	1.46	5 of 6
GFTLNSYGIS	VIYSDGRRTFYGDNVK	GRAAGTFDL	1.27	1 of 6
GFDLNEYGIS	VIYADGVRTFYTDDVK	GEVAGTFDL	-0.50	6 of 6
GFALDEYGIS	VIYADGKRTFYSNTVK	GEDGVFYDQ	3.28	1 of 6
GFDLNEYGIS	VIYADGVRTAYSDSVK	GNVAGTFDI	-0.24	6 of 6
GFTLNSYGIS	VIYSDGVRTFYSDSVK	GREAGTFDS	0.90	6 of 6
GFDLMEYGIS	VIYADGKRKAYENKVK	GGSVRSVVI	0.16	6 of 6
GFTLNEYGIS	VIYSDGRRTFYGDSVK	GRAAGTFDW	1.16	6 of 6
GFDLDEYGIS	VIYADGMRTAYADSVK	GHVAGTFDV	-0.52	6 of 6
GFDLDEYGIS	VIYADGQRTAYSDSVK	GNVAGTFDV	-0.36	6 of 6
RFNLNDYGIS	VIYSDGRRTFYGDSVK	GRAAGTFDS	3.03	1 of 6
GFDLNEYGIS	VIYADGQRTFYVDSVK	GQVAGTFDV	-0.94	6 of 6
GFDLDEYGIS	VIYADGMRTAYSDSVK	GNQAGTFDT	-0.15	6 of 6
GFDLTEYGIS	VIYADGRRTQYQDAVK	GLNGGMLVV	nd	0 of 6
GFDIESYGIS	VIYSDGRRTFYGDSVR	GRAAGTFDS	0.14	6 of 6
GFTLNSYGIS	VIYSDGRRTFYDMSVK	GQLAGTFGS	nd	0 of 6
GFTLNSYGGS	VIYSDGRRTFYSDSVK	GREAGTFDS	1.51	2 of 6
GFDLDEYGIS	VIYADGMRTAYADDVK	GNTAGTFDV	-0.42	6 of 6
GFDLNEYGIS	VIYADGRRTFYADSVK	GQEAGTFTL	-0.14	6 of 6
GFDLNEYGIS	VIYADGMRTFYTDSVK	GEVAGTFDM	-0.30	6 of 6
GFDLNEYGIS	VIYADGRRTFYADSVK	GNNAGTFDM	-0.33	6 of 6
GFTLNSYGIS	VIYSDGRRTFYGDSVK	GRHIGTFDS	1.00	3 of 6
GFYLNSYGIS	VIYSDGRRTFYGDSVK	GKTAGTFDT	0.10	6 of 6
GFTLNQYGIS	VIYSDGRRTFYGDEVK	GRSAGTFDS	nd	0 of 6
GFDLDEYGIS	VIYADGKRTAYADSVK	GSNAGTFDM	-0.16	6 of 6
GFNLNEYGIS	VIYADGRRTFYTDDVK	GEQAGTFDL	-1.08	6 of 6
GFDLNEYGIS	VIYADGMRTAYANSVK	GNVAGTFDM	-0.33	6 of 6
GFQLNEYGIS	VIYSDGRRTFYQDSVK	GNAAGTFDS	0.45	6 of 6
GFTLNSYGIS	VIYSDGRRTFYSDSVK	GVEAGTFDS	0.09	6 of 6
GFTLNEYGIS	VIYSDGRRTFYGDSVK	GRWAGTFDT	1.09	6 of 6
GFSLNSYGIS	VIYSDGRRTFYADDVK	GKAAGTFDS	1.15	6 of 6

As a blank, each scFv also met three strains without target: over all heavy chain designs, 1% of these pairings were detected, typically at 2.08 and seldom below 0.84.
The parent sequence was in this pool as ten entries: three were never detected, three once, and four in most replicates, with averages from 0.34 to 2.37.
A sequence measured in both rounds can read differently, since the two assays cover different ranges.
In the paper, a design with two or fewer of six values counts as a poor binder.